# In paper PMC9607537, “Understanding the Antilymphoma Activity of Annona macroprophyllata Donn and Its Acyclic Terpenoids: In Vivo, In Vitro, and In Silico Studies” (Molecules, 2022):
# Tested on: Balb/c mice
# Protocol: Twenty-four female mice of the Balb/c strain were randomly used to form 8 groups (n = 3). […] The control group was administered with only the vehicle (Tween 80 at 2% in water) and for the compounds, doses of 500 and 1000 mg kg^−1 were administered. […] Subsequently, we sacrificed the animals and extracted the organs (stomach, intestines, spleen, liver, and kidneys) were extracted, reporting the pathological changes, if any.
compound,measurement,setting,value
"CN(Cc1cnc2nc(N)nc(N)c2n1)c1ccc(C(=O)N[C@@H](CCC(=O)O)C(=O)O)cc1 [MTX, methotrexate, reference compound]","TI Female (therapeutic index, LD50/ED50)","LD50 acute oral toxicity / ED50 antilymphoma activity, female mice",255.75
same,"TI Male (therapeutic index, LD50/ED50)","LD50 acute oral toxicity / ED50 antilymphoma activity, male mice",338.42
same,Mortality in acute oral toxicity test,"mice, single oral dose, until end of study (14 days)",caused death in the animals
